This passage reports IC50 results from ChEMBL document CHEMBL2429811, “Novel selective and potent inhibitors of malaria parasite dihydroorotate dehydrogenase: discovery and optimization of dihydrothiophenone derivatives” (J Med Chem, 2013).

The test deals with T1, Dihydroorotate dehydrogenase (Plasmodium falciparum, UniProt Q54A96).
T1 sequence (Q54A96 whole entry): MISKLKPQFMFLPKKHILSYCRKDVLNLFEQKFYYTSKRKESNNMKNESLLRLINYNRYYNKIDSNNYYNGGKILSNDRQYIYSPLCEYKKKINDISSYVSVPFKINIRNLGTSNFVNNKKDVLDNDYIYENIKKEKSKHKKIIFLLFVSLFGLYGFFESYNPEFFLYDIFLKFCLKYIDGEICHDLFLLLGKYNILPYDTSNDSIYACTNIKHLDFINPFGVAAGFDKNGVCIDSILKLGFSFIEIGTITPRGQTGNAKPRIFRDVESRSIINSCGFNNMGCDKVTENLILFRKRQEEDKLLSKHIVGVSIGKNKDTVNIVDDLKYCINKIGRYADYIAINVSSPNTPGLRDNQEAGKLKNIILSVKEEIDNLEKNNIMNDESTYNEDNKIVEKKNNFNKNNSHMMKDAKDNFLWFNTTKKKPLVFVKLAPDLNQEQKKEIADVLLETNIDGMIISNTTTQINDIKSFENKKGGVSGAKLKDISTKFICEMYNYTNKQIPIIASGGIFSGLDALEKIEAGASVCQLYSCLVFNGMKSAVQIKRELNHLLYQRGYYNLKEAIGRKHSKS
Put plainly: Inhibition of Plasmodium falciparum DHODH (Phe158 to Ser569) expressed in Escherichia coli BL21 using dihydroorotate as substrate measured every 30 secs for 6 mins by DCIP dye-based assay.

In the case of `Cc1cc(Nc2ccc3ccccc3c2)n2ncnc2n1`, half-maximal inhibition (IC50) was put at 31 nM.
